Bioassay records from PubChem BioAssay.
Only some compounds are listed: those with a hit (about 0.48% of all), similar ones and a draw of the others.
EPAC2 antag: EPAC2 (human) antagonism. EPAC2 GEF exchange of Rap1B-BODIPY-GDP, fluorescence. Q8WZA2. 0.18% of 360,000 active. Potency, µM (highest dose often 114 µM), for the others: top-dose activity, negative = inhibition, actives largely listed as inhibitors. AID 720708; further: on the % scale 0 is the no-effect control and ±100 the full control effect; nearly all actives have a fitted effect of over 45% in size
EPAC2 ag: activates human EPAC2 exchange factor; EPAC2 activation, biochemical qHTS; response scale: 100% = 6.5 mM cAMP response; Potency, µM (series often up to 154 µM), without a hit: at the top dose activation, hits mostly activators; 0.079% of 360,000 active; AID 720711; further: nearly all actives have a fitted effect of over 50% in size
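Each well held 100 nM EPAC2, 250 nM RAP1B-BODIPY-GDP and 50 uM GDP. Fluorescence, read at 5-min intervals to 30 min, was referenced to a 6.5 mM cAMP positive control.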
EPAC1 antagonist: EPAC1 (human) antagonism. EPAC1 GEF assay, Rap1b-BODIPY-GDP exchange fluorescence. Potency, µM (doses to about 115 µM), for inactives: at the top dose activity change, negative = inhibition, usual class: inhibitors. 0.14% of 360,000 active. AID 720709;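 further: plate controls were vehicle for no effect and positive control for full effect; nearly all actives have a fitted effect of over 50% in size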
Rango complex inh: inhibitors of Rango-importin beta complex formation. Rango CFP/YFP FRET sensor + importin beta, 45 min. 0.031% of 340,000 active. Potency, µM (titrated, usually from 92.2 µM), without a hit: at the top dose inhibition of complex formation; calls by dose curve;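 further: 0% = DMSO wells and 100% = buffer wells lacking importin beta; nearly all actives have a fitted effect of over 15% in size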
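Inhibition scored from the CFP 486 nm/YFP 530 nm FRET ratio 45 min after adding 0.125 microM importin beta to 50 nM Rango biosensor preincubated 5 min with compound (room temperature, PBS with DTT, Tween-20, BSA). No-importin wells as positive control.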
EPAC1 agonist: agonists of human EPAC1 | EPAC1 agonist qHTS, biochemical assay; response scale: 100% = response to 6.5 mM cAMP | Potency, µM (titrated, usually from 154 µM), inactives show at the top dose activation, actives largely listed as activators | AID 720707 | 0.073% of 360,000 active; further: nearly all actives have a fitted effect of over 60% in size
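Normalized to 6.5 mM cAMP, activity reflects EPAC1-catalysed release of BODIPY-GDP from Rap1B, followed kinetically over 30 min at 480 nm excitation, 540 nm emission. Reaction contained 100 nM EPAC1, 250 nM Rap1B-BODIPY-GDP, 50 uM GDP.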
Rango release inh: inhibition of RanGTP-driven Rango-importin beta dissociation | AID 540253 | Potency, µM (titrated, usually from 46.1 µM), without a hit: at the top dose activity change, negative = inhibition | Biochemical FRET Rango-importin beta, RanGTP-induced dissociation | O95149+P62826 | 0.071% of 340,000 active; calls by dose curve; further: % of control where 0% means no effect; nearly all actives have a fitted effect of over 45% in size
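FRET read at 45 min, room temperature: inhibitors block the CFP/YFP signal rise when RanGTP (0.6 uM Ran, 2 mM GTP, 0.2 uM RCC1) frees Rango (0.1 uM) from importin beta (0.25 uM). Pre-read after 5 min compound exposure flags interference.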
* hit, by the source's call; u = inconclusive; x = not tested or not shown; [ ] = remark or other dose. Unless noted, the call rests on the fitted dose curve; in most records, active means well fitted curve in the direction sought with a large enough effect; inconclusive means small, poorly fitted or top-dose-only effect, or another doubt; inactive means no such curve, though single readings can be large; an effect the other way counts as inactive or inconclusive. Potency means the concentration at half of the fitted maximal effect.

Start of the data: the first 2 records, ahead of the listing:
item	Molecule	EPAC2 antag	EPAC2 ag	EPAC1 antagonist	Rango complex inh	EPAC1 agonist	Rango release inh
1	C#CCOCCOCCOCCNc1nc(N2CCN(C(=O)CCCCCCCCCCNC(=O)[C@H](CCCCN)n3cc(C)nn3)CC2)nc(N2CCN(C(=O)CCCCCCCCCCNC(=O)[C@H](CCCN=C(N)N)n3cc(C[C@@H](C)CC)nn3)CC2)n1	-21%	19%	50µM*	16%	5%	u
2	O=C(/C=C/c1ccccc1)N1CCN(c2c(Cl)cccc2[N+](=O)[O-])CC1	-1%	11%	-21%	-1%	3%	1%

The whole of this part (from the top)
item	Molecule	EPAC2 antag	EPAC2 ag	EPAC1 antagonist	Rango complex inh	EPAC1 agonist	Rango release inh
1	C#CCOCCOCCOCCNc1nc(N2CCN(C(=O)CCCCCCCCCCNC(=O)[C@H](CCCCN)n3cc(C)nn3)CC2)nc(N2CCN(C(=O)CCCCCCCCCCNC(=O)[C@H](CCCN=C(N)N)n3cc(C[C@@H](C)CC)nn3)CC2)n1	-21%	19%	50µM*	16%	5%	u
2	O=C(/C=C/c1ccccc1)N1CCN(c2c(Cl)cccc2[N+](=O)[O-])CC1	-1%	11%	-21%	-1%	3%	1%
3	O=C(Nc1ccccc1N1CCOCC1)c1cccc2c(Br)cccc12	14µM*	-2%	-10%	6%	-5%	-5%
4	O=C1C=C(NCCc2cc(Br)c(O)c(Br)c2)C(=O)c2ncccc21	79µM*	-1%	50µM*	u	15%	-14%
5	C=CCNC(=O)COc1cc(C)ccc1C	-5%	7%	-13%	3%	5%	-14%
6	CCc1ccc2c(c1)NC(=O)C2(C)Cc1ccc(Cl)s1 (stereo unspecified)	u	13%	-15%	x	-5%	x
7	CCc1ccc2c(c1)NC(=O)C2(C)Cc1ccc(F)cc1 (stereo unspecified)	45µM*	-4%	-8%	x	-17%	x
8	O=C(c1ccccc1)c1coc2ccc(O)c(Cl)c12	-11%	13%	u	2%	19%	-11%
9	Cc1ccc(C(=O)c2coc3ccc(O)c(Cl)c23)cc1	u	20%	20µM*	0%	4%	3%
10	CC(=O)c1cccc(-c2ccc3c(=O)[nH]c(Nc4ccccc4)cc3c2)c1	5%	8%	50µM*	u	13%	12µM*[inhibitor]
11	O=c1[nH]c(Nc2ccccc2)cc2cc(Br)ccc12	-10%	6%	u	u	-5%	u
12	CC(=O)c1cccc(Nc2nc(-c3ccccc3)nc3ccccc23)c1	2%	1%	-6%	0%	-5%	-6%
13	O=c1[nH]c(Nc2ccccc2)cc2ccccc12	u	6%	50µM*	u	-6%	u
14	Cc1ccc(C)c(N(CC(=O)NCc2ccccc2)C(=O)c2csnn2)c1	2%	12%	-25%	0%	-1%	-7%
15	Cc1ccc(-c2nnc(SCC(=O)NC3CCCC3)n2C)cc1	2%	4%	-3%	-2%	-3%	10%
16	Cc1ccc(C)c(NC(=O)CCc2nnc3ccc(NCc4ccco4)nn23)c1	42%	4%	-5%	-2%	8%	2%
17	CCCC[C@@]1(C2CCCC2)Cc2cc(OCC(=O)O)c(Cl)c(Cl)c2C1=O	45µM*	-3%	-20%	1%	-11%	19%
18	CSCCC(c1nc2ccccc2[nH]1)n1c(=O)c(-c2ccco2)nc2ccccc21 (stereo unspecified)	6%	13%	-5%	x	11%	x
19	Cc1ccc(/C=C/C(=O)Nc2ccc([N+](=O)[O-])cc2)o1	-1%	2%	4%	8%	0%	-7%
20	CCOC(=O)CCc1ccc(NC(=O)/C=C/c2ccc([N+](=O)[O-])o2)cc1	11%	-9%	3%	-6%	-7%	10µM*
21	CC(=NNC(=O)c1ccncc1)c1ccccc1O	-11%	4%	u	u	-3%	u
22	CC(C)CC(=NNC(=O)c1ccncc1)c1cc(Cl)ccc1O	2%	u	-1%	u	100µM*	u
23	COc1ccc(C(NC(=O)c2cc(OC)ccc2OC)c2ccccc2)cc1 (stereo unspecified)	45µM*	11%	-24%	-1%	12%	-2%
24	COc1ccc(OC)c(CC(=O)NC(c2ccccc2)c2ccccc2)c1	4%	10%	-7%	3%	-3%	0%
25	O=S(=O)(c1ccc(OCC2CO2)cc1)c1ccc(OCC2CO2)cc1 (stereo unspecified)	8%	12%	-12%	4%	-7%	6%
26	Cn1cc([C@]2(O)C(=O)Nc3ccc(Br)cc32)c2ccccc21	50µM*	-2%	0%	x	-5%	x
27	Cn1cc([C@]2(O)C(=O)Nc3ccc(F)cc32)c2ccccc21	u	4%	20%	x	-9%	x
28	CCCCCCCCCCCCN1[C@@H](CC(=O)O)c2cc(F)ccc2S1(=O)=O	u	-22%	79µM*	4%	-40%	-3%
29	CCCCCCCCCCCCN1[C@@H](CC(=O)O)c2cc(C(F)(F)F)ccc2S1(=O)=O	u	-12%	79µM*	-4%	-39%	-6%
30	Cc1cccc(-n2c(C)cc(C=C3C(=O)c4ccccc4C3=O)c2C)c1	3%	22%	-10%	u	-1%	u
31	Cc1cc(C=C2C(=O)c3ccccc3C2=O)c(C)n1-c1ccc(Cl)cc1	79µM*	-176%	0%	u	-8%	u
32	COc1ccc(C(=O)/C=C/c2ccc(OC)c(COc3ccc(F)cc3)c2)cc1	-2%	11%	-12%	0%	14%	9%
33	COc1ccc(C(C)=O)cc1COc1ccc(F)cc1	56µM*	14%	-30%	-1%	15%	1%
34	O=C(NC12CC3CC(CC(C3)C1)C2)c1cc([N+](=O)[O-])ccc1N1CCOCC1	2%	8%	-4%	5%	-5%	19%
35	Cc1ccc(C2C(C#N)=C(N)OC3=C2C(=O)CC(C)(C)C3)s1 (stereo unspecified)	1%	5%	17%	0%	4%	17%
36	COc1ccc(/C(O)=C/C(=O)C(=O)NNC(=O)C(O)(c2ccccc2)c2ccccc2)cc1	1%	3%	40µM*	2%	7%	11%
37	Cc1ccc(S(=O)(=O)N2[C@@H](c3cccc(Cl)c3)C(C(=O)O)=CC[C@H]2c2ccc(C(C)C)cc2)cc1	-28%	-9%	56µM*	0%	-16%	0%
38	Cc1ccc(S(=O)(=O)N2[C@@H](c3ccc(Cl)cc3)C(C(=O)O)=CC[C@H]2c2cccc(Cl)c2)cc1	u	5%	-12%	0%	0%	-4%
39	CN(C)CCN(C)C1CN(Cc2ccc(F)cc2)S(=O)(=O)C1 (stereo unspecified)	25%	1%	3%	x	14%	x
40	Cc1ccccc1Cn1c(C)nc2ccc([N+](=O)[O-])cc2c1=O	-10%	0%	-13%	58µM*	4%	0%
41	Cc1cccc(Cn2c(C)nc3ccc([N+](=O)[O-])cc3c2=O)c1	-17%	1%	-4%	5%	-6%	17%
42	CSc1ccc(C(O)c2ncc(-c3ccc(F)cc3)[nH]2)cc1 (stereo unspecified)	7%	7%	-26%	x	-9%	x

Sorted by SMILES length (largest number first): part of the list above.
item	Molecule	EPAC2 antag	EPAC2 ag	EPAC1 antagonist	Rango complex inh	EPAC1 agonist	Rango release inh
32	COc1ccc(C(=O)/C=C/c2ccc(OC)c(COc3ccc(F)cc3)c2)cc1	-2%	11%	-12%	0%	14%	9%
31	Cc1cc(C=C2C(=O)c3ccccc3C2=O)c(C)n1-c1ccc(Cl)cc1	79µM*	-176%	0%	u	-8%	u
35	Cc1ccc(C2C(C#N)=C(N)OC3=C2C(=O)CC(C)(C)C3)s1 (stereo unspecified)	1%	5%	17%	0%	4%	17%
